The values below come from PubChem BioAssay AID504467 (National Center for Advancing Translational Sciences (NCATS), 2011).

This is a selection; strong and weak results do not stand in their true shares. Results filed as inconclusive are left out. Calls of active or inactive are those of the source. Calls follow the shape of the dose curve; as a rule, active = well fitted inhibition curve with a large enough effect; inconclusive = small, poorly fitted or top-dose-only effect, or effect the other way; inactive = flat fitted curve, though single readings scatter.
Potency is read from the fitted curve at half-maximal effect.

This experiment can be described thus: qHTS screen for small molecules that inhibit ELG1-dependent DNA repair in human embryonic kidney (HEK293T) cells expressing luciferase-tagged ELG1. Also: nearly all actives have a fitted effect of over 55% in size. To be noted: HEK293T ELG1-luciferase reporter, luminescence, 16 h; DNA damage induced by 5-fluorouridine. An excerpt: NIH Molecular Libraries Probe Production Network [MLPCN] NIH Chemical Genomics Center [NCGC] MLPCN Grant: 1 R03 MH092164-01 Assay Provider: Kyungjae Myung, NHGRI, NIH Keywords: MLPCN, qHTS, NCGC, genotoxicity, cancer Assay Overview: Cancer cells divide rapidly compared to normal cells in the body. During cell division, cancer cells need to duplicate their genome by DNA replication. The failure of genome duplication leads to cancer cells' death. Therefore, inhibitors of DNA replication could specifically kill cancer cells. Based on this concept, many chemotherapeutic agents were developed and have been used to treat cancer patients. However, there are a limited number of agents available in the clinical setting, and some of those that do exist have low efficacy and severe side effects. […] With this in mind, we developed a quantitative high-throughput ELG1-luciferase reporter gene assay. […]
Assay Protocol Summary: For genotoxicity screening, 2,000 cells in 4 uL/well were dispensed into white, solid-bottom 1536-well plates using a solenoid-based dispenser. […] 5 ul ONE-Glo (Promega) was then added to each plate and following a 30 min incubation at room temperature, luciferase activity was quantified on a ViewLux CCD-based plate reader.
Regarding `Nc1ncn([C@@H]2O[C@H](CO)[C@@H](O)[C@H]2O)c(=O)n1`, the Potency is active: 2820 nM.
